From US6911431B1 (priority 1989, dated 2005) come the findings set out here.

Data set [1] can be described thus: Pharmacokinetics and biodistribution GLP study, intranasal 14C-labelled dipeptide. The data set is classed as in vivo, Sprague-Dawley rats. To be noted: 110 μg/kg intranasally, rats. How it is done: ^14C-radiolabeled L-Glu-L-Trp (110 μg/kg) was administered intranasally to Sprague-Dawley rats. Blood and tissue samples were collected at different 0.5, 2, 8 or 24 hours and the amount of intact L-Glu-L-Trp was determined by HPLC. Tissue samples included packed red blood cells, white blood cells, liver, kidney, heart, lung spleen, thymus, brain, muscle, skin, fat, eye, ovaries, testes, submandibular lymph nodes, and the gastrointestinal tract with contents.

Data set [2] in a line: Solubility of purified dipeptide. It is filed as physicochemical. An excerpt:
Purification of the product peptides is accomplished for example by crystallizing the peptide from an organic solvent such as methyl-butyl ether, followed by dissolving in distilled water, and dialysis (if greater than about 500 molecular weight), thin layer chromatography, gel chromatography, lyophilization, or reverse HPLC (e.g., using a C18 column with 0.1% trifluoroacetic acid and acetonitrile as solvents) if less than 500 molecular weight. Purified peptide is lyophilized is stored in a dry state until use. […] [alpha22D=+12.6; C=0.5 H2O. Rf=0.65 (butanol: acetic acid: water=3:1:1). UV (275±5 nm, max). NMR (500 MHz): 0.001 mol/1 of the peptide solution, Trp (3.17; 3.37; 4.57; 7.16; 7.24; 7.71; 7.49); Glu (1.90; 1.96; 2.21; 3.72).

Data set [3] in a line: Acute toxicity study, im injection. The data set is classed as in vivo. To be noted: about 10,000-times a therapeutic dosage. An excerpt:
Summary: L-Glu-L-Trp when injected im at dosages calculated to be about 10,000-times a therapeutic dosage were non toxic in mice, guinea pigs, chickens, and dogs as determined by monitoring general condition, behavior, movements, cardiac and respiratory physiology, and gross pathology.

Data set [4] in a line: Chronic toxicity study, 28 days daily im or iv. To be noted: daily single im or iv for 28 days. It is filed as in vivo, dogs and rats. How it is done: Kidney function was determined by evaluation of diuresis after water-loading; for certain other experiments dogs and rats were sacrificed and examined after 10, 20, 30, and 60 days.

For the substance “14C-radiolabeled L-Glu-L-Trp [14C-L-Glu-L-Trp]”, in data set [1], the Tissue elimination half-life came to 18.7 h and the blood half life result is “less than 30 minutes”. In data set [1] (sensitivity 5-101 ng/mL), the “intact compound in blood at 30 minutes (HPLC)” value is listed as “No intact compound was detected”.
As for L-Glu-L-Trp, the “Solubility in chloroform and ether” value in data set [2] (chloroform and ether) was “insoluble”. Further, the “Solubility in water, DMF” value in data set [2] (water, DMF) was “soluble”. The Acute toxicity entry in data set [3] (chickens), in data set [3] (dogs), in data set [3] (guinea pigs) and in data set [3] (mice) was “non toxic” throughout. Also, the Chronic toxicity entry in data set [4] is reported as “without adverse effects”.
